Data from ChEMBL document CHEMBL1125579, “Relative structure-inhibition analyses of the N-benzoyl and N-(phenylsulfonyl) amino acid aldose reductase inhibitors” (J Med Chem, 1991).

Key:
[1] = molecular target: T1, Aldo-keto reductase family 1 member B1 (Rattus norvegicus, UniProt P07943); test: Inhibitory activity against aldose reductase in rat lens
How it was run: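 Rat lens enzyme: 100 lenses from frozen rat eyes homogenized in distilled water and centrifuged at 5 °C; the supernatant was brought to 40% ammonium sulfate saturation and the freshly prepared supernatant was used. Assay at 30 °C in 0.1 M phosphate pH 6.2 with 0.104 mM NADPH and 10 mM DL-glyceraldehyde. NADPH loss was read at 340 nm for 3 min. IC50 from ≥6 concentrations, ≥2 determinations each, by least-squares fit of log dose-response.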

[2] = molecular target: T1, Aldo-keto reductase family 1 member B1; test: The compound was tested for the inhibition of Aldose reductase in rat lens assay.

- IC50 [1]: 190 nM
- IC50 [2]: 70 nM
SMILES: O=C1NC(=O)[C@@]2(CCOc3ccc(F)cc32)N1 [SORBINIL]
